Values quoted from earlier work, collected in patent US20020147137A1, “Medical use of alpha1-acid glycoprotein (AAG) or orosomucoid” (Hamosan Erzeugung Pharmazeutischer Grundstoffe Gesellschaft …, priority 1999, published 2002).

Test system: isolated perfused rat livers
Details: protein added to perfusate; drugs binding to albumin or not; cited from earlier work

human serum albumin
influence on elimination of drugs: accelerate the elimination of drugs
